Test results taken from patent US10577360B2, “Arylamide derivatives having multimodal activity against pain” (ESTEVE PHARMACEUTICALS, S.A., priority 2016, dated 2020).
pKi: −log10 of the molar value. Only a part of the results on these compounds is given; other tests are left out.

Protein sequences, listed by entry. Tags and fused reporters are not part of them. Lines headed by an entry give the natural chain unless they say otherwise; changes in a name come on top. Residues count along the entry.
UniProt P54289, 25-1103 limits assumed: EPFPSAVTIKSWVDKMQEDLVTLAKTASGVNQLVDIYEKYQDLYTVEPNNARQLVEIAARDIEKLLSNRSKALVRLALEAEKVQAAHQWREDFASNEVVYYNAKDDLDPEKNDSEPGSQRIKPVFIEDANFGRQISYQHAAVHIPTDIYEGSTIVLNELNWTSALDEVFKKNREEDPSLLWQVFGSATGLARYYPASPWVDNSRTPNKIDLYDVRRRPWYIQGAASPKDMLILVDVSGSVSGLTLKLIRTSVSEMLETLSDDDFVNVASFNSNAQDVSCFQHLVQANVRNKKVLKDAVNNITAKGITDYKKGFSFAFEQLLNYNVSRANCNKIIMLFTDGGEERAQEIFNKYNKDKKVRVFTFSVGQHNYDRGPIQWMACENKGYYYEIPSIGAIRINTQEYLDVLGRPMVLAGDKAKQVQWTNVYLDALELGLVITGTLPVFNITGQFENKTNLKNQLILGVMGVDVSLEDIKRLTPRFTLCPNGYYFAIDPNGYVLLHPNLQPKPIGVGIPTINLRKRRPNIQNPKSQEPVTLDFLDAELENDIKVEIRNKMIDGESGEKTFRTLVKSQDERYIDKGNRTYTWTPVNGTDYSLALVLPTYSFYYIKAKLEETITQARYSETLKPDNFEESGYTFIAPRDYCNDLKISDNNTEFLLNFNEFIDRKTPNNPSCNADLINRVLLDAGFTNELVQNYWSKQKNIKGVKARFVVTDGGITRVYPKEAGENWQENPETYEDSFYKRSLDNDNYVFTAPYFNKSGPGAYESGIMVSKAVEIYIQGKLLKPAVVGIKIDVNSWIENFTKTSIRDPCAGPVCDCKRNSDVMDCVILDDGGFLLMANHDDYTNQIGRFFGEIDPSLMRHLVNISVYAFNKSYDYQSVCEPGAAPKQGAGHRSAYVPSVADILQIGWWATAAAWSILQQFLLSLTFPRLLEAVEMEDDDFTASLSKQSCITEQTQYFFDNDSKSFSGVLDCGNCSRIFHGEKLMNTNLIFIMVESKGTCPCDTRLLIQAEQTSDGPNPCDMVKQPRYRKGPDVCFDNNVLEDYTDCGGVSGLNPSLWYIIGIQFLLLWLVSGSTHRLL

Biological target: Human α2δ-1 subunit of Cav2.2 calcium channel (Homo sapiens (Human), UniProt P54289)
Experiment: Human α2δ-1 subunit of Cav2.2 calcium channel assay ([3H]-Gabapentin binding)
Details: read-out: α2δ − 1 (Ki)

| Molecule | pKi |
| --- | --- |
| Cc1csc(C(=O)N(c2ccn(-c3ccccc3)n2)C2CCN(C)CC2)n1 | < 5.30 |
| Cc1ccccc1-n1ccc(N(C(=O)c2cccs2)C2CCN(Cc3ccccc3)CC2)n1 | 5.30 to 6.30 |
| O=C(c1cccs1)N(c1ccn(-c2ccncc2)n1)C1CCN(Cc2ccccc2)CC1 | 5.30 to 6.30 |
| O=C(c1nccs1)N(c1ccn(-c2ccc(F)cc2)n1)C1CCN(Cc2ccccc2)CC1 | 5.30 to 6.30 |
| CN1CCC(N(C(=O)c2cccs2)c2ccn(-c3ccccc3F)n2)CC1 | 5.30 to 6.30 |
| Cc1nnc(-c2cccc(-n3ccc(N(C(=O)c4cccc(O)c4)C4CCN(C)CC4)n3)c2)o1 | 5.30 to 6.30 |
| Cc1ccccc1-n1ccc(N(C(=O)c2cccs2)C2CCN(C)CC2)n1 | 5.30 to 6.30 |
| CC(C)N1CCC(N(C(=O)c2cccs2)c2ccn(-c3ccccc3)n2)CC1 | 5.30 to 6.30 |
| CC(=O)Nc1cccc(-n2ccc(N(C(=O)c3cccs3)C3CCN(C)CC3)n2)c1 | 5.30 to 6.30 |
| CCOc1ccc(-n2ccc(N(C(=O)c3cccs3)C3CCN(C)CC3)n2)cc1 | < 5.30 |
| CN1CCC(N(C(=O)c2cccs2)c2ccn(-c3cccc(OC(F)(F)F)c3)n2)CC1 | 5.30 to 6.30 |
| O=C(c1ccc(Cl)s1)N(c1ccn(-c2ccccc2)n1)C1CCN(Cc2ccccc2)CC1 | < 5.30 |
| O=C(c1cncs1)N(c1ccn(-c2ccccc2)n1)C1CCN(Cc2ccccc2)CC1 | < 5.30 |
| COc1cccc(-n2ccc(N(C(=O)c3cccc(O)c3)C3CCN(C)CC3)n2)c1 | < 5.30 |
| O=C(c1ccco1)N(c1ncn(-c2ccccc2)n1)C1CCN(Cc2ccccc2)CC1 | < 5.30 |
| CN1CCC(N(C(=O)c2cccs2)c2ccn(-c3cccc(NS(C)(=O)=O)c3)n2)CC1 | 6.30 to 7.00 |
| COc1cc(C)cc(-n2ccc(N(C(=O)c3cccs3)C3CCN(C)CC3)n2)c1 | 5.30 to 6.30 |
| COc1cc(-n2ccc(N(C(=O)c3cccs3)C3CCN(C)CC3)n2)ccn1 | 5.30 to 6.30 |
| CCOc1cccc(-n2ccc(N(C(=O)c3cccs3)C3CCN(C)CC3)n2)c1 | 5.30 to 6.30 |
| COc1cccc(C(=O)N(c2ccn(-c3cccc(-c4nnc(C)o4)c3)n2)C2CCN(C)CC2)c1 | 5.30 to 6.30 |

| Molecule | pKi |
| --- | --- |
| O=C(c1cccs1)N(c1ccn(-c2cccnc2)n1)C1CCN(Cc2ccccc2)CC1 | 5.30 to 6.30 |
| Cn1cccc1C(=O)N(c1ccn(-c2ccc(F)cc2)n1)C1CCN(Cc2ccccc2)CC1 | < 5.30 |
| CC1CC(N(C(=O)c2cccs2)c2ccn(-c3ccccc3)n2)CC(C)N1Cc1ccccc1 (stereo not drawn) | < 5.30 |
| O=C(c1cccs1)N(c1ccn(-c2ccccc2)n1)C1CCNCC1 | 6.30 to 7.00 |
| CN1CCC(N(C(=O)c2cccs2)c2ccn(-c3cc(O)ccc3Cl)n2)CC1 | < 5.30 |
| CN1CCC(N(C(=O)c2cccnc2)c2ccn(-c3ccccc3)n2)CC1 | < 5.30 |
| CN1CCC(N(C(=O)c2ncccc2F)c2ccn(-c3ccccc3)n2)CC1 | < 5.30 |
| CN1CCC(N(C(=O)c2cccs2)c2ccn(-c3ccc(O)cc3Cl)n2)CC1 | 5.30 to 6.30 |
| COc1ccc(Cl)c(-n2ccc(N(C(=O)c3cccs3)C3CCN(C)CC3)n2)c1 | < 5.30 |
| Cc1nnc(-c2cccc(-n3ccc(N(C(=O)c4cccc(NS(C)(=O)=O)c4)C4CCN(C)CC4)n3)c2)o1 | < 5.30 |
| N-(1-benzylpiperidin-4-yl)-N-(2-phenyl-2H-1,2,3-triazol-4-yl)thiophene-2-carboxamide | < 5.30 |
| CN1CCC(N(C(=O)c2cccs2)c2ccn(-c3ccc(F)cc3)n2)CC1 | 5.30 to 6.30 |
| O=C(c1ccc(F)s1)N(c1ccn(-c2ccccc2)n1)C1CCN(Cc2ccccc2)CC1 | 5.30 to 6.30 |
| COc1cccc(-n2ccc(N(C(=O)c3cccs3)C3CCN(Cc4ccccn4)CC3)n2)c1 | 5.30 to 6.30 |
| CN1CCC(N(C(=O)c2cccs2)c2ccn(-c3ccncc3F)n2)CC1 | 5.30 to 6.30 |
| CCOc1ccc(-n2ccc(N(C(=O)c3cccs3)C3CCN(Cc4ccccc4)CC3)n2)cc1 | < 5.30 |
| Cc1nnc(-c2cccc(-n3ccc(N(C(=O)c4nccs4)C4CCN(Cc5ccccc5)CC4)n3)c2)o1 | 6.30 to 7.00 |
| Cc1nnc(-c2cccc(-n3ccc(N(C(=O)c4cccs4)C4CCN(Cc5ccccn5)CC4)n3)c2)o1 | 6.30 to 7.00 |
| O=C(c1ccoc1)N(c1ccn(-c2ccc(F)cc2)n1)C1CCN(Cc2ccccc2)CC1 | 5.30 to 6.30 |
